Earlier results, collected in patent US20040210280A1, “Plaster-type chip systems for thermodynamic control of topical dermal and transdermal systems” (BIONICS PHARMA GmbH, priority 2002, published 2004).

Details: healthy persons, after subcutaneous injection, relation to skin temperature

insulin
magnitude of the insulin concentration in the serum: significantly statistically correlated with the skin temperature
